One test deals with ROCK1 (Homo sapiens (Human), UniProt Q13464). The test is described as follows: ROCK assay (Caliper LABCHIP peptide phosphorylation), ROCK1.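 Further: Read-out is separation of phosphorylated from unphosphorylated peptide, with kinase activity inhibition computed at every concentration of a dose-response series.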 In kind it is biochemical. The note with it: 5 μM ATP, 1.5 μM peptide substrate.
The target in a further test is ROCK2 (Homo sapiens (Human), UniProt O75116). The test is described as follows: ROCK assay (Caliper LABCHIP peptide phosphorylation), ROCK2.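 Further: reaction stopped with EDTA, then phosphorylated and unphosphorylated peptide resolved by microfluidic electrophoresis, kinase inhibition computed at each compound concentration in dose-response series, DMSO under 2%.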 Particulars: 5 μM ATP, 1.5 μM peptide substrate. The test is classed as biochemical.

Protein sequences, listed by entry. Tags and fused reporters are not part of them.
UniProt Q13464, whole entry, species assumed: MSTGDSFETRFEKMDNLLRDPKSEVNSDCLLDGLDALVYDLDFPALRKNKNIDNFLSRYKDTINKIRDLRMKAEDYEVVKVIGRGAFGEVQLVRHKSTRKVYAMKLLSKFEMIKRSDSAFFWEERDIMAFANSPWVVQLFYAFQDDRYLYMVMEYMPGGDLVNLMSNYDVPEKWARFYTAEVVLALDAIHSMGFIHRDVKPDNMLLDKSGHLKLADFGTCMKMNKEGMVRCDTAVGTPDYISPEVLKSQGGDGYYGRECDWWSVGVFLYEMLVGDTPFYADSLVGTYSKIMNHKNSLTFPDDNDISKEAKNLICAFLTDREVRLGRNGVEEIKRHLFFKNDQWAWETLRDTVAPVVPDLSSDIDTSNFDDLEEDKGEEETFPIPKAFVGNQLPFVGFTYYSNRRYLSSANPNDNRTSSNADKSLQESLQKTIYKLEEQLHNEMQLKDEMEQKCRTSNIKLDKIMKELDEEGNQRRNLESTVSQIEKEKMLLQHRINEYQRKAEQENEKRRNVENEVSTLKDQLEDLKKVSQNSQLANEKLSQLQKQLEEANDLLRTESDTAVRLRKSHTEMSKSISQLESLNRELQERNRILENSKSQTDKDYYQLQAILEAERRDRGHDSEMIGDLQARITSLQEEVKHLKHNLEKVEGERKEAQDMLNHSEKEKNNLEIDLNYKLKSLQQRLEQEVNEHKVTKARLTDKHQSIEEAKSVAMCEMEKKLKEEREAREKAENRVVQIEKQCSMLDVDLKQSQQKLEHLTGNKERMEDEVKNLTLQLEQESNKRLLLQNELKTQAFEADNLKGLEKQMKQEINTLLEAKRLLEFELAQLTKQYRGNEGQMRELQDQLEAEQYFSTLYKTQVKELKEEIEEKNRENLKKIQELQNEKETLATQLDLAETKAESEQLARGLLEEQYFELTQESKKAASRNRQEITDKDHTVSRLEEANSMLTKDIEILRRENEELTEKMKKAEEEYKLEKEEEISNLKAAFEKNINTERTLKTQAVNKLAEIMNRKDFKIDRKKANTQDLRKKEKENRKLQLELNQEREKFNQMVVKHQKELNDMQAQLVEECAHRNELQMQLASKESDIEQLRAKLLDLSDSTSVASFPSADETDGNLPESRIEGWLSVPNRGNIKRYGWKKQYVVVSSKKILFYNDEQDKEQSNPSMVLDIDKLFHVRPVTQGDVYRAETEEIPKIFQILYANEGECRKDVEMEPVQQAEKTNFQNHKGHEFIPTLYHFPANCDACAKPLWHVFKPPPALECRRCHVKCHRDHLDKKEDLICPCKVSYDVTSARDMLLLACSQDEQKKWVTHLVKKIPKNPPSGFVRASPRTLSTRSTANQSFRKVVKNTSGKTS
UniProt O75116, whole entry, species assumed: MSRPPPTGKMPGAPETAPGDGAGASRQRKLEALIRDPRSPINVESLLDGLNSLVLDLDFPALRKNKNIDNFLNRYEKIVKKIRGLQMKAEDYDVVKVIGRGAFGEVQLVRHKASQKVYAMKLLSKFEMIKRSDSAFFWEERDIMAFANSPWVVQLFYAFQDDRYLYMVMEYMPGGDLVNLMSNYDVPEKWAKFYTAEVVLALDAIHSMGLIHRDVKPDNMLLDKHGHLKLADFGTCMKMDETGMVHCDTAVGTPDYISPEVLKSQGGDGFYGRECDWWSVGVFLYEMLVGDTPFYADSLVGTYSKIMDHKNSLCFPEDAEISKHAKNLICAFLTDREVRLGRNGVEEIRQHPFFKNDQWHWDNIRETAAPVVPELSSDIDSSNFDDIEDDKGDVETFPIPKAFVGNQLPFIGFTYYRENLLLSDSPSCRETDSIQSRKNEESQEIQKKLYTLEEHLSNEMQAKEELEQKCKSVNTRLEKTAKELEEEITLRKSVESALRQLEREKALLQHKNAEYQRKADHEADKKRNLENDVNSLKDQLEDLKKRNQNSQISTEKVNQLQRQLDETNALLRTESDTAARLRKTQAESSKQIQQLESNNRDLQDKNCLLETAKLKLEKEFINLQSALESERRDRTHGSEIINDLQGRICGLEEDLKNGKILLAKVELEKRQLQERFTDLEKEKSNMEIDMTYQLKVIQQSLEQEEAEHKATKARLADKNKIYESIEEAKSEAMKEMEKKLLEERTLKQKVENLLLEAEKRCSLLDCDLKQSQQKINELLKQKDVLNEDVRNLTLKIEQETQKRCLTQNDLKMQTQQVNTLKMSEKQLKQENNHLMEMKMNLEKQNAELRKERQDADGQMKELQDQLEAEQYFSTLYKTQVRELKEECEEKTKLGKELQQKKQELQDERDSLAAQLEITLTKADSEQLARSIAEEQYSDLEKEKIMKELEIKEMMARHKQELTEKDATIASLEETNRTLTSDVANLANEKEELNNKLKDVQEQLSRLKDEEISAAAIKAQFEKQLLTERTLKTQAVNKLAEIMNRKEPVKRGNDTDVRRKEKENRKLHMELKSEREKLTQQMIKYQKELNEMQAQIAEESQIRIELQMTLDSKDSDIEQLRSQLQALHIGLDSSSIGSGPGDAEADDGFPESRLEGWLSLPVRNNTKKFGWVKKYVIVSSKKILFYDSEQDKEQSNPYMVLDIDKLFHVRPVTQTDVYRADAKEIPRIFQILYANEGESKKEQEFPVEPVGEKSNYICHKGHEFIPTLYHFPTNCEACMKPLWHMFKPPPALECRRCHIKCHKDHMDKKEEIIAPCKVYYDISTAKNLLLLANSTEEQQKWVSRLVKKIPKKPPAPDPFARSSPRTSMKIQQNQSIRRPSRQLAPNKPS

The IC50 is the point on the concentration scale where inhibition reaches its midpoint. At ROCK1, `CC(O)c1cc(C(=O)N[C@H](C)c2ccc(F)cc2)ccc1-c1cn[nH]c1` (single isomer, unassigned) [Example 270] showed an IC50 of over 2000 nM.
Compound `COc1cc(C(=O)NC(C)c2cc(F)cc(F)c2)ccc1-c1cn[nH]c1` (racemic) [Example 67, (+/−)-N-(1-(3,5-difluorophenyl)ethyl)-3-methoxy-4-(1H-pyrazol-4-yl)benzamide] yielded a half-inhibitory concentration (IC50) against ROCK2 of 9.29 nM.
As for `C[C@@H](NC(=O)c1cc(F)c(-c2cn[nH]c2)cc1OCCN(C)C)c1ccccc1` [Example 310, 2-[2-(dimethylamino)ethoxy]-5-fluoro-N-[(1R)-1-phenylethyl]-4-(1H-pyrazol-4-yl)benzamide], at ROCK1, half-maximal inhibition (IC50) was put at 1110 nM.
As to `COc1cc(C(=O)NC(C)Cc2ccc(F)cc2)ccc1-c1cn[nH]c1` (stereo not shown) [Example 111, N-[1-(4-fluorophenyl)propan-2-yl]-3-methoxy-4-(1H-pyrazol-4-yl)benzamide], it took 21.2 nM to reach half-maximal inhibition on ROCK2 (IC50).
`COc1cc(C(=O)NC(CNC(=O)OC(C)(C)C)c2ccccc2)ccc1-c1cn[nH]c1` (stereo not shown) [Example 11, tert-butyl (2-(3-methoxy-4-(1H-pyrazol-4-yl)benzamido)-2-phenylethyl) carbamate]: at ROCK2, the IC50 was 36 nM.
With `CC(O)c1cc(C(=O)N[C@H](C)c2ccc(F)cc2)ccc1-c1cn[nH]c1` (stereo partly drawn) [Example 268, N-((R)-1-(4-Fluorophenyl)ethyl)-3-(1-hydroxyethyl)-4-(1H-pyrazol-4-yl)benzamide], the figures for the IC50 on ROCK1 and on ROCK2 were 181 nM and 48.1 nM, respectively.

Values taken from patent US9458110B2, “Phenylpyrazole derivatives as potent ROCK1 and ROCK2 inhibitors” (BRISTOL-MYERS SQUIBB COMPANY, priority 2013, dated 2016).
